Assay results reported in patent CN101627111A.

Target: recombinant human TNF kept in transmembrane form on K2 (C480A) Sp2/0 cells (human), P01375
Experiment: cell-based or functional assay

B1: CNTO 148 (golimumab) produced in C1083B YB2/0 cells (antibody, V domains shown)
VH: QVQLVESGGGVVQPGRSLRLSCAASGFIFSSYAMHWVRQAPGNGLEWVAFMSYDGSNKKYADSVKGRFTISRDNSKNTLYLQMNSLRAEDTAVYYCARDRGIAAGGNYYYYGMDVWGQGTTVTVSS
VL: not shown
modifications: here or on the partner: more than 80% of the Fc oligosaccharides not fucosylated
**Q.** Which ADCC potency (specific lysis of K2 cells, EuTDA release) against CNTO 148 from mouse myeloma cells does the source give for B1 here?
**A.** Its ADCC potency (specific lysis of K2 cells, EuTDA release) against CNTO 148 from mouse myeloma cells is 70 倍.
